According to ChEMBL document CHEMBL6083232, “A review on synthetic inhibitors of dual-specific tyrosine phosphorylation-regulated kinase 1A (DYRK1A) for the treatment of Alzheimer's disease (AD)” (Bioorg Med Chem, 2024):

Molecular target: Dual specificity tyrosine-phosphorylation-regulated kinase 1A (Homo sapiens, UniProt Q13627)
Assay: Inhibition of DYRK1A (unknown origin) extracted from Escherichia coli BL21 (DE3) cells measured for 60 mins by FRET assay

IC50: 0.93 nM
SMILES: CCN1/C(=C/C(C)=O)Sc2ccc(OC)cc21
